The structures appear in SMILES notation. Read-outs that look alike come from different tables or passages of the source.

Amino acid sequences for entries named in this document (tags omitted). A change or cut given only in a name is not applied to a line headed by its entry.
UniProt Q9QYN8: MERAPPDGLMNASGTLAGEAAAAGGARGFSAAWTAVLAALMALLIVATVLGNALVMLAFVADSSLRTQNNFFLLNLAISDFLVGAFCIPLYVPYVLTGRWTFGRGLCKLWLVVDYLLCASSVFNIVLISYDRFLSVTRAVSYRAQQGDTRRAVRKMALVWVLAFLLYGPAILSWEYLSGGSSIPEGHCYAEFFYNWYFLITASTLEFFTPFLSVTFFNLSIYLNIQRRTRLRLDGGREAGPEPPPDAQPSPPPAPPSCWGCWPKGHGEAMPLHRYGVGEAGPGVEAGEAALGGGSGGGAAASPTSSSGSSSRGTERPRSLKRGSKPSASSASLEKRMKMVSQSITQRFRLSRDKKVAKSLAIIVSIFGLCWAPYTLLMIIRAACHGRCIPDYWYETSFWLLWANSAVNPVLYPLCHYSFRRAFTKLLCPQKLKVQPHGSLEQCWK

For this test, the target named is T1, histamine H3 receptor (Rattus norvegicus, UniProt Q9QYN8).
T1 construct: from tissue
Nature of the test: Inhibition of [^3 H]-N-alpha-methylhistamine binding to rat brain membranes. On the procedure: A series of compounds were prepared and tested for their histamine H3 receptor antagonist activity. The antagonist activity of the compounds was detected by observing inhibition of (^3 H)-N-(alpha)methylhistamine activity on rat brain membranes.
The various compounds were tested for the ability to bind to the histamine H3 receptor. A binding assay in a rat brain membrane preparation, based on inhibition of binding of [^3 H]-N-alpha-methylhistamine using excess unlabeled alpha-methylhistamine to account for nonspecific binding, was developed.

Consider `O=C(CCCCC1CCCCC1)N1CCC(c2c[nH]cn2)CC1` [Compound 1, 4-(1-cyclohexylvaleroyl-4-piperidyl)-1H-imidazole], for which the IC50 is 23 ± 6 nM. In addition, the IC50 (read-out: affinity, repeated in text) came to 23 nM.

For the origin of these results see patent US5486526A, “Histamine H3 -receptor antagonists and therapeutic uses thereof” (The University of Toledo, priority 1993, dated 1996).
